Source: ChEMBL document CHEMBL1131470, “Inhibition of human O6-alkylguanine-DNA alkyltransferase and potentiation of the cytotoxicity of chloroethylnitrosourea by 4(6)-(benzyloxy)-2,6(4)-diamino-5-(nitro or nitroso)pyrimidine derivatives and analogues” (J Med Chem, 1998)

Target: T1, Methylated-DNA--protein-cysteine methyltransferase (Homo sapiens, UniProt P16455)
T1 sequence (P16455 whole entry): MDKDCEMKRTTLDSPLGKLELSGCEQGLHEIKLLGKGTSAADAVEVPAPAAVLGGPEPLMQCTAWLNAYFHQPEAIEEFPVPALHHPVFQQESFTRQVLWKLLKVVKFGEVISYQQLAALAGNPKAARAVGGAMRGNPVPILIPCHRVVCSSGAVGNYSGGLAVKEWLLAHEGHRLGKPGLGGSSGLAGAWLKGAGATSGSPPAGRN
Test: In vitro inhibitory activity against human O6-alkylguanine-DNA alkyltransferase (AGAT)

Question: `Nc1nc(OCc2ccccc2)c2[nH]cnc2n1` [6-O-BENZYLGUANINE] was tested. Which IC50 did it give?
Answer: 2.6 µM
